Reference: ChEMBL document CHEMBL1137985, “Synthesis and enzymatic evaluation of xanthine oxidase-activated prodrugs based on inhibitors of thymidine phosphorylase” (Bioorg Med Chem Lett, 2004)

By UniProt entry, the sequences of proteins in these tests, tags left out. Where a name states a change or a piece, a line headed by the entry shows the natural chain unless it says otherwise.
UniProt P07650: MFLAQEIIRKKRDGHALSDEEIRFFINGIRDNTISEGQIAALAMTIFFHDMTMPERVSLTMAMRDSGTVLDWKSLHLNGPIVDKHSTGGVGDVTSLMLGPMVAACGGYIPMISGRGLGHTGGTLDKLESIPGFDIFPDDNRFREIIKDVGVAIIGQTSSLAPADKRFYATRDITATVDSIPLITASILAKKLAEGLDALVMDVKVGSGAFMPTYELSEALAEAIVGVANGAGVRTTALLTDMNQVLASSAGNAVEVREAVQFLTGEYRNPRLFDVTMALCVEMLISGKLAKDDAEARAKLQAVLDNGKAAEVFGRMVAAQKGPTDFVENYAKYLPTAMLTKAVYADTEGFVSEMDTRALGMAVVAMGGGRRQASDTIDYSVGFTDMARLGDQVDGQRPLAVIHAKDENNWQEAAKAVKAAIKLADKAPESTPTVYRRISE

Target: Thymidine phosphorylase (Escherichia coli K-12, UniProt P07650)

Structure (SMILES): O=c1[nH]c(=O)c2cc[nH]c2[nH]1 [7-DEAZAXANTHINE]
- IC50: 6.5 µM
